The chains behind the UniProt entries cited, without tags or fusion partners. Residues count along the entry.
UniProt Q00959, 23-1464: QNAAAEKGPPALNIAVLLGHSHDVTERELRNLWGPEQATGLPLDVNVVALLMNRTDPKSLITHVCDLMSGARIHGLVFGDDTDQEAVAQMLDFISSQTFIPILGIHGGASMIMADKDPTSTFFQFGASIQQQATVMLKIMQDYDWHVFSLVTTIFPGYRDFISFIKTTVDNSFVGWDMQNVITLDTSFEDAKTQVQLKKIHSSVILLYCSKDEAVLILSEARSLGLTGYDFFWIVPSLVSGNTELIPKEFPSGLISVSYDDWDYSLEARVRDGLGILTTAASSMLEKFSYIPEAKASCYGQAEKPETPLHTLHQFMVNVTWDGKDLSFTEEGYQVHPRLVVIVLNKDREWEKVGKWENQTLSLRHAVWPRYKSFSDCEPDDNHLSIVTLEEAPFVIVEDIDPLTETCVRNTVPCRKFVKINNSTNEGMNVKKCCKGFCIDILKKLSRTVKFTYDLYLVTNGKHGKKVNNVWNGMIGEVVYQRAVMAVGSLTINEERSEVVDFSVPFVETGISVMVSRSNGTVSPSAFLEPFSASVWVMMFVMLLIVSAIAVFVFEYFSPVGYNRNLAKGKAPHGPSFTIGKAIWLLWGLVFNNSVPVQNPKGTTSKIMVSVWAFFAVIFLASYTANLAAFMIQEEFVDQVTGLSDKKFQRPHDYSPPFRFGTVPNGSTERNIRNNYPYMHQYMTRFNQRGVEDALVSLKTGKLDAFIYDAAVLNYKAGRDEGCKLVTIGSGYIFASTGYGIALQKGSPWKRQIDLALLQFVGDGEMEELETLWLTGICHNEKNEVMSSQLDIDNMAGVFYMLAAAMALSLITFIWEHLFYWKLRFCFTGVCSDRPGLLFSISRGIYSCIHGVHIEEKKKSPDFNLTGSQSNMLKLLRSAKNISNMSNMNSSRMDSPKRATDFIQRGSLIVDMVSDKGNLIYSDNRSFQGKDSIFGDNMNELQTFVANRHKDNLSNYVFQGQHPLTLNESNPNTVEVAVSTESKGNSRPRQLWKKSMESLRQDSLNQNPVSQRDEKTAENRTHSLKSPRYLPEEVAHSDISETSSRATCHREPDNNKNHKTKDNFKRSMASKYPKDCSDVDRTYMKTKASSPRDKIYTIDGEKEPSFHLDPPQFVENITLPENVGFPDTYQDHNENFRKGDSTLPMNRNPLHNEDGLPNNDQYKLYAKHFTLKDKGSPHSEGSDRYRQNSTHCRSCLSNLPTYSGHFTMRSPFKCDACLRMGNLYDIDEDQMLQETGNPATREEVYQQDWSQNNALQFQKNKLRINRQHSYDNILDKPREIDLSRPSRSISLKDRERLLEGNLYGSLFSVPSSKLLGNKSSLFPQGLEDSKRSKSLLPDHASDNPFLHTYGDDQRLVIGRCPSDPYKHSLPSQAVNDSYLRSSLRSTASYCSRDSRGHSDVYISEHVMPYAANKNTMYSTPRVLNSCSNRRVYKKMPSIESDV

In paper PMC5441875 (eLife, 2017):

Target: WT GluN1/GluN2A receptors (Rattus norvegicus, UniProt P35439+Q00959)
Experimental: Receptor functionality and light-sensitivity were assessed in patch-clamp recordings of lifted whole cells 24–72 hr post transfection. Positively transfected cells were visualized by GFP-fluorescence. […] The osmolarity was 270–290 mOsm. The cells were continuously perfused with a Ringer solution containing (in mM): 140 NaCl, 2.8 KCl, 1 CaCl2, 0.01 DTPA, 10 HEPES and five sucrose (pH 7.3 with NaOH). The osmolarity was 290 mOsm. DTPA was added to prevent tonic inhibition of NMDARs by ambient zinc ([Paoletti et al., 1997]). Currents were recorded using an Axopatch 200B amplifier and a Digidata 1550A interface (Molecular Devices), sampled at 10–20 kHz, and low-pass filtered at 2–5 kHz. The cells were voltage-clamped at −60 mV. pClamp 10.5 (Molecular Devices) was used to acquire the data. […]
Agonists or other pharmacological substances were applied using a multi-barrel rapid solution exchanger system (RSC 200, Bio-Logic). […] The agonist deactivation kinetics were assessed by including the converse co-agonist to the control solution. […]
Computer-controlled light pulses during electrophysiological recordings were provided from sensitive high power LEDs (Prizmatix). […] The LED port was directly coupled via a microscope adaptor to the fluorescence port of an inverted DIAPHOT 300 Nikon microscope. […]
The weighted deactivation time constants were calculated with: τw =( Af/(Af+As))*τf + (As /(Af + As))*τs.

NCC(=O)O [glycine]
mean weighted deactivation time constant τdeact,UV (UV): 166 ± 30 ms
mean weighted deactivation time constant τdeact,DARK (dark, 800 ms agonist jumps): 184 ± 16 ms
